## scFv variants of Ab-14 (light chain) against a SARS-CoV-2 spike peptide

Source: Engelhart et al. 2022 (doi:10.1038/s41597-022-01779-4), MIT Lincoln Laboratory and A-Alpha Bio; data file from the FLAb repository.

Antigen: PDVDLGDISGINAS, a 14-residue peptide of the SARS-CoV-2 spike HR2 region.

Parent: Ab-14, a human scFv built as VH, three GGGGS repeats, VL. Only the CDRs of the light chain vary.
VH: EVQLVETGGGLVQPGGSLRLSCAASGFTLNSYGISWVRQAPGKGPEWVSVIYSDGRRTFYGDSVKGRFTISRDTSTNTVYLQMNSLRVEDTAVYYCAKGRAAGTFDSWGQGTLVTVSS
VL: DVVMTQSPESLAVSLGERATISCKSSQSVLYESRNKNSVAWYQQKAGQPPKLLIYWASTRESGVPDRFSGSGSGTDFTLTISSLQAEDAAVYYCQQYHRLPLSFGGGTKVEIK

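The parent was found by panning a naive human phage display library on the peptide. AAYL50 was designed without a model: most single CDR substitutions and a random sample of double and triple ones. Affinity was read by AlphaSeq, a pooled yeast mating assay with surface-displayed partners. Binding brings cells together so that they mate, and sequencing counts the barcode pairs among the diploids. Scores were corrected for input abundance and mapped to Kd with protein pairs of known affinity run in the same pool. There are three technical replicates.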

The whole VL of each variant is written out. This list gathers variants with a substitution at S26 (VL, numbered from residue 1). The read-out is the apparent dissociation constant on a log10 scale (nM): the lower, the stronger. "ND" means that the variant was in the library but no mating with the target was seen in that replicate; the authors take this as a sign of poor binding, and no number exists.

For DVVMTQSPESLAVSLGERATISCKSMQSVLYESRDANSVAWYQQKAGQPPKLLIYWASTRESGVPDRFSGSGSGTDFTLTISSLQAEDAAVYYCQQYHRLPLSFGGGTKVEIK, the assay gave 2.09, 1.34, 2.28 (controls 0 of 9). Variant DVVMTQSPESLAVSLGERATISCKSVQSVLYESRNKNSVAWYQQKAGQPPKLLIYWGSTREIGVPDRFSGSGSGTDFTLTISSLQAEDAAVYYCQQYHRLPLSFGGGTKVEIK gave 0.67, 1.03, 0.88 (controls 1 of 9). For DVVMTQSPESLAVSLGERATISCKSYQSVLYESRNKNSVAWYQQKAGQPPKLLIYVASTRESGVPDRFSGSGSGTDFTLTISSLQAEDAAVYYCQQYHRLPLSFGGGTKVEIK, the assay gave ND, ND, 4.36 (controls 2 of 9). With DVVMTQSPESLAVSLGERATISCKSAQSVLYESRNKNSVAWYQQKAGQPPKLLIYWAVTRESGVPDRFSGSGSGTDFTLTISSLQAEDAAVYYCQQYERLPLSFGGGTKVEIK the result was 2.95, 2.79, 4.42 (controls 3 of 9). Variant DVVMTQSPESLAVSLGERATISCKSHQSVLYESRVKNSVAWYQQKAGQPPKLLIYWANTRESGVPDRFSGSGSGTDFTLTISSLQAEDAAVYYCQQYHRLPLSFGGGTKVEIK showed 1.43, ND, 1.88 (controls 0 of 9). With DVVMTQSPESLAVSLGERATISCKSGQSVLYESRNKNSVAWYQQKAGQPPKLLIYWASTRESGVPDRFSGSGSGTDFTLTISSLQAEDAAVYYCQQYTRLPLSFGGGTKVEIK the result was ND, ND, ND (controls 2 of 9). Variant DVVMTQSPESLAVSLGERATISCKSTQSVLYESRNKNSVAWYQQKAGQPPKLLIYWASTREAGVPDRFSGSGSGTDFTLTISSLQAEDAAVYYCQQYHRLPNSFGGGTKVEIK gave ND, ND, ND (controls 1 of 9). With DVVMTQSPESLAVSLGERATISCKSQQSVLYESRNKNSVAWYQQKAGQPPKLLIYWAQTMESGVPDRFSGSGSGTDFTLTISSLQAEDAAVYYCQQYHRLPLSFGGGTKVEIK the result was ND, ND, ND (controls 0 of 9).

Variant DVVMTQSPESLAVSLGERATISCKSIQSVLYECRNSNSVAWYQQKAGQPPKLLIYWASTRESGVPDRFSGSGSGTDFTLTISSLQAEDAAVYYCQQYHRLPLSFGGGTKVEIK showed 5.61, ND, ND (controls 1 of 9). For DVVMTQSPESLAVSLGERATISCKSFQSVLYESRNKNSVAWYQQKAGQPPKLLIYWTSTREWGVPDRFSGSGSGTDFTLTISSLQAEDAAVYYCQQYHRLPLSFGGGTKVEIK, the assay gave ND, ND, ND (controls 0 of 9). With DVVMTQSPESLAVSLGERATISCKSKQSVLYEMRNKNSVAWYQQKAGQPPKLLIYWASTRESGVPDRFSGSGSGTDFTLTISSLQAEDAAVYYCQDYHRLPLSFGGGTKVEIK the result was ND, ND, ND (controls 1 of 9). For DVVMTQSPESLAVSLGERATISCKSGQSVLYESHNKNSVAWYQQKAGQPPKLLIYWASTRESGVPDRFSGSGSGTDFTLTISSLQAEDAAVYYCQIYHRLPLSFGGGTKVEIK, the assay gave 3.02, 2.39, 3.45 (controls 2 of 9). Variant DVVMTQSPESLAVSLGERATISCKSWQSVLYESRNKNSVAWYQQKAGQPPKLLIYWASTRESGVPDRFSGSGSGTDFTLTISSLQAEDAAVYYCQQYHRLPLSFGGGTKVEIK showed 2.62, 2.61, 2.65 (controls 4 of 9). For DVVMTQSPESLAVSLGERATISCKSKQSVLYESRNKMSVAWYQQKAGQPPKLLIYWASTRESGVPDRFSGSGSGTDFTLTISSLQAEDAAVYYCQQHHRLPLSFGGGTKVEIK, the assay gave ND, ND, ND (controls 1 of 9). For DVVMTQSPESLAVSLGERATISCKSDQSVLYESRNKNSVAWYQQKAGQPPKLLIYWASRRESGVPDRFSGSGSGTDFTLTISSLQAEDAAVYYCQQYHRIPLSFGGGTKVEIK, the assay gave 2.20, 2.25, 2.18 (controls 5 of 9). With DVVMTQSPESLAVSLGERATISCKSYQSVLYESRNKNSKAWYQQKAGQPPKLLIYWASTRESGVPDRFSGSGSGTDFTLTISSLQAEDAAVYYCQQYHRLPLDFGGGTKVEIK the result was ND, ND, ND (controls 3 of 9).

Variant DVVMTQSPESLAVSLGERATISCKSIQSVLYESRNKNSVAWYQQKAGQPPKLLIYWASTRESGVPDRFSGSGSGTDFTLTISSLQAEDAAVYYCQQHHRLPLSFGGGTKVEIK showed 3.73, 4.49, ND (controls 3 of 9).

The first 3 entries again:

VL,"log10 Kd, replicates",control signals
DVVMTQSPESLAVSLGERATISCKSMQSVLYESRDANSVAWYQQKAGQPPKLLIYWASTRESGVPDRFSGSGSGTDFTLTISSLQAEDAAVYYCQQYHRLPLSFGGGTKVEIK,"2.09, 1.34, 2.28",0 of 9
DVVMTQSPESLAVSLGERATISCKSVQSVLYESRNKNSVAWYQQKAGQPPKLLIYWGSTREIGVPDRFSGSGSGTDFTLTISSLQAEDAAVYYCQQYHRLPLSFGGGTKVEIK,"0.67, 1.03, 0.88",1 of 9
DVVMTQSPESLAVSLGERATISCKSYQSVLYESRNKNSVAWYQQKAGQPPKLLIYVASTRESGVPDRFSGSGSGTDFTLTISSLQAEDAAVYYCQQYHRLPLSFGGGTKVEIK,"ND, ND, 4.36",2 of 9

As a blank, each scFv also met three strains without target: over library AAYL50, 18% of these pairings were detected, typically at 4.19 and seldom below 2.99. The control count says in how many pairings with the empty strains this scFv gave a signal. Parent in this assay: reference entry 0.65, copy in this library 1.68.